Assay results reported in article PMC10052868 (European journal of medicinal chemistry, 2022).

How the values were obtained:
[1] = test system: panel of 468 kinases (403 non-mutant kinases); assay type: binding, human; conditions: KINOMEscan
[2] = test system: P. falciparum 3D7; assay: P. falciparum asexual blood stage viability assay; assay type: cell-based
[3] = test system: P. berghei ANKA; assay: P. berghei liver stage parasite load assay in HepG2 cells; assay type: cell-based; conditions: HepG2 host cells

## COc1cc2nccc(Oc3ccc(NC(=O)Nc4ccc(CN5CCN(C)CC5)c(C(F)(F)F)c4)c(F)c3)c2cc1OC [Compound 45, 1-(4-((6,7-dimethoxyquinolin-4-yl)oxy)-2-fluorophenyl)-3-(4-((4-methylpiperazin-1-yl)methyl)-3-(trifluoromethyl)phenyl)urea diformate]
[1]
  selectivity score S1 (1 μM): 0.33
[2]; compared to both 39 and 41
  fold improvement in potency against P. falciparum blood stage over 39 and 41: 5 fold

## COc1cc2nccc(Oc3ccc(NC(=O)Nc4ccc(CC5CCNCC5)cc4)c(F)c3)c2cc1OC [Compound 67, 1-(4-((6,7-dimethoxyquinolin-4-yl)oxy)-2-fluorophenyl)-3-(4-(piperidin-4-ylmethyl)phenyl)urea]
[3]
  fold difference between P. berghei EC50 and CellTiter-Fluor CC50: 1.4 fold
[1]
  selectivity score S1 (1 μM): 0.055
[2]; compared to 41
  fold improvement in P. falciparum blood stage inhibitory activity over 41: approximately 4 fold

## COc1cc2nccc(Oc3ccc(NC(=O)Nc4ccc(CC5CCNCC5)c(C(F)(F)F)c4)c(F)c3)c2cc1OC [Compound 79, 1-(4-((6,7-dimethoxyquinolin-4-yl)oxy)-2-fluorophenyl)-3-(4-(piperidin-4-ylmethyl)-3-(trifluoromethyl)phenyl)urea]
[3]
  fold difference between P. berghei EC50 and CellTiter-Fluor CC50: 5.9 fold
[1]
  selectivity score S1 (1 μM): 0.24
[2]; compared to parent compound without meta group (64, 66, 67 or 68)
  fold improvement in P. falciparum blood stage potency on adding CF3 or OCF3: 4 fold
